target: recombinant human UAE (Homo sapiens (Human), UniProt P22314); test: Ubiquitin Activating Enzyme (UAE) HTRF assay, human UAE; conditions: not given

By UniProt entry, the sequences of proteins in these tests, tags left out. Where a name states a change or a piece, a line headed by the entry shows the natural chain unless it says otherwise.
UniProt P22314: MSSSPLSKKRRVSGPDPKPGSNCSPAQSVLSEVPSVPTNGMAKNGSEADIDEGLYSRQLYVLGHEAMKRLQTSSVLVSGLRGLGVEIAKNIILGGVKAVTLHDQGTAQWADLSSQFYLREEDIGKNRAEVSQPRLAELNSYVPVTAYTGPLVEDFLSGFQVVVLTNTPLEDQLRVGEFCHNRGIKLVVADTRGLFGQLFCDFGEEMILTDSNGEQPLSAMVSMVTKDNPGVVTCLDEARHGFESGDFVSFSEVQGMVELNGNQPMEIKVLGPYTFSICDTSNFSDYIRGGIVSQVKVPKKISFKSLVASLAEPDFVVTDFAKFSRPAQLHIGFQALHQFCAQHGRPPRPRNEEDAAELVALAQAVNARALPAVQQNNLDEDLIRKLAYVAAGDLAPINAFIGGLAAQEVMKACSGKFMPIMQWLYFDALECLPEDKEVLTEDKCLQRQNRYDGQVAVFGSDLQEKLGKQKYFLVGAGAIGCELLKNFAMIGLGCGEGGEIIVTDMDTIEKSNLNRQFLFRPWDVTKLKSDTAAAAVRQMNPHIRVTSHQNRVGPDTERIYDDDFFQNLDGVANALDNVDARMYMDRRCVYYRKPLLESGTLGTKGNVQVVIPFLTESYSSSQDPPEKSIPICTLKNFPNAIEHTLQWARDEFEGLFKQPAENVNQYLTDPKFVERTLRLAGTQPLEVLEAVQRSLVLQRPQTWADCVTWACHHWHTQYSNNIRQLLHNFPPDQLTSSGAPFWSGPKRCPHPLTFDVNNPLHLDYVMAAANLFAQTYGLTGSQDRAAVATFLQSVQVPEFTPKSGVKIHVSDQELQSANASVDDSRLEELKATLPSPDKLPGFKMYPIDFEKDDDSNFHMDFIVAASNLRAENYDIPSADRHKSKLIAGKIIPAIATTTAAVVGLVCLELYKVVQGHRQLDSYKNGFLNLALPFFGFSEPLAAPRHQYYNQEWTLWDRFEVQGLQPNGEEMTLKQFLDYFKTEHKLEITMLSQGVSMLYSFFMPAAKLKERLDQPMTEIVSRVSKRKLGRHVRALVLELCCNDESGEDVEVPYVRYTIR

IC50, < 10 nM:
NS(=O)(=O)OC[C@H]1C[C@@H](Nc2ccnc3cc(-c4cc(C(F)(F)F)ccc4F)nn23)[C@H](O)[C@@H]1O (racemic) [Compound I-029, (rac)-((1R,2R,3S,4R)-4-((2-(2-Fluoro-5-(trifluoromethyl)phenyl)pyrazolo[1,5-a]pyrimidin-7-yl)amino)-2,3-dihydroxycyclopentyl)methyl rel-sulfamate]
NS(=O)(=O)OC[C@H]1C[C@@H](Nc2ccnc3cc(-c4ccnc5cc(Cl)ccc45)nn23)[C@H](O)[C@@H]1O (racemic) [Compound I-039, (rac)-((1R,2R,3S,4R)-4-(2-(7-chloroquinolin-4-yl)pyrazolo[1,5-a]pyrimidin-7-ylamino)-2,3-dihydroxycyclopentyl)methyl rel-sulfamate]
CC1(C)OCc2ccc(-c3cc4nccc(N[C@@H]5C[C@H](COS(N)(=O)=O)[C@@H](O)[C@H]5O)n4n3)cc21 (racemic) [Compound I-053, (rac)-((1R,2R,3S,4R)-4-(2-(3,3-dimethyl-1,3-dihydroisobenzofuran-5-yl)pyrazolo[1,5-a]pyrimidin-7-ylamino)-2,3-dihydroxycyclopentyl)methyl rel-sulfamate]
CCc1ccc2scc(-c3cc4nccc(N[C@@H]5C[C@H](COS(N)(=O)=O)[C@@H](O)[C@H]5O)n4n3)c2c1 (racemic) [Compound I-094, (rac)-((1R,2R,3S,4R)-4-(2-(5-ethylbenzo[b]thiophen-3-yl)pyrazolo[1,5-a]pyrimidin-7-ylamino)-2,3-dihydroxycyclopentyl)methyl rel-sulfamate]

same assay, conditions: human UAE

IC50, < 10 nM:
NS(=O)(=O)OC[C@H]1C[C@@H](Nc2ccnc3cc(-c4ccc5cc(F)ccc5c4)nn23)[C@H](O)[C@@H]1O [Compound I-113, (s.e.)-((1R,2R,3S,4R)-4-(2-(6-fluoronaphthalen-2-yl)pyrazolo[1,5-a]pyrimidin-7-ylamino)-2,3-dihydroxycyclopentyl)methyl sulfamate]
Cc1ccc(-c2cc3nccc(N[C@@H]4C[C@H](COS(N)(=O)=O)[C@@H](O)[C@H]4O)n3n2)c2ccccc12 [Compound I-115, (s.e.)-((1R,2R,3S,4R)-2,3-dihydroxy-4-(2-(4-methylnaphthalen-1-yl)pyrazolo[1,5-a]pyrimidin-7-ylamino)cyclopentyl)methyl sulfamate]
NS(=O)(=O)OC[C@H]1C[C@@H](Nc2ccnc3cc(-c4cc(F)c5ccccc5c4)nn23)[C@H](O)[C@@H]1O [Compound I-118, (s.e.)-((1R,2R,3S,4R)-4-(2-(4-fluoronaphthalen-2-yl)pyrazolo[1,5-a]pyrimidin-7-ylamino)-2,3-dihydroxycyclopentyl)methyl sulfamate]
